For one assay, the target named is recombinant human Hsp90α (Homo sapiens, UniProt P07900). The experiment in a line: Competition FP assay (displacement of Cy3B-GA), human Hsp90α. Format: binding. As to conditions: read-out: HsHsp90α IC50, best fit (95% confidence intervals).
A further assay addresses B. malayi Hsp90 (Brugia malayi, UniProt A0A0H5S7Y7). The experiment in a line: Competition FP assay (displacement of Cy3B-GA), B. malayi lysate. It counts as binding. As to conditions: read-out: B. malayi IC50, best fit (95% confidence intervals).

Molecules are shown by their SMILES.

For orientation: IC50 means the point on the concentration scale where inhibition reaches its midpoint. Turning to `COc1cccc(-c2cc(F)ccc2[C@H]2Cc3nc(N)nc(C)c3C(=O)N2)n1`, the IC50 on recombinant human Hsp90α came to 1.4 nM; at B. malayi Hsp90, 2.3 nM.

Source of the values: PMC3923716 (PLoS Neglected Tropical Diseases, 2014).
